Binding of CDR-mutated scFvs to a peptide of the spike HR2 region

Target: peptide PDVDLGDISGINAS, taken from heptad repeat 2 (HR2) of SARS-CoV-2 spike.

Ab-95 is the parent antibody, in scFv form: VH, then a (GGGGS)3 linker, then VL. The heavy chain is unchanged in all variants.
VH: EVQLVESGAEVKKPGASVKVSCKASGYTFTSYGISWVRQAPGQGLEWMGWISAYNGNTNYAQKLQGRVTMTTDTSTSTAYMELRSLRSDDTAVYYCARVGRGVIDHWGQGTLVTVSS
VL: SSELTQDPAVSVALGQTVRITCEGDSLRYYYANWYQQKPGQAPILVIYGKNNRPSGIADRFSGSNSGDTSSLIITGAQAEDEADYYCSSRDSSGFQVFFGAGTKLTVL

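The parent was found by panning a naive human phage display library on the peptide. AAYL52 was designed without a model: most single CDR substitutions and a random sample of double and triple ones. In AlphaSeq, yeast of one mating type display the scFv and yeast of the other type display the target. The frequency of each diploid, read from paired DNA barcodes, reflects how well the two displayed proteins bind. Read counts were normalised to the haploid input and turned into Kd by a linear fit to BCL2-family pairs of known affinity, for each replicate. The assay was run in three technical replicates.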

Substitutions are numbered in sequence along the VL above, starting at 1 (not Kabat). The read-out is the apparent dissociation constant on a log10 scale (nM): the lower, the stronger. Replicates are averaged; those with no signal do not enter the mean. "ND" means that the variant was in the library but no mating with the target was seen in that replicate; the authors take this as a sign of poor binding, and no number exists. Three control strains display no target. For library AAYL52, 28% of the pairings with them gave a signal, with a median of 3.91 and one signal in twenty below 2.90, so weak values seen in few replicates may be background. The control count says in how many pairings with the empty strains this scFv gave a signal, with their mean in brackets. In this assay the parent's reference entry averaged 2.31; its copy inside this library read 2.25.

| changes | log10 Kd, replicates | mean log10 Kd (nM) | empty controls |
|---|---|---|---|
| R28T+F95Y+Q96C | 2.79 / 2.64 / 2.34 | 2.59 | 4 of 9 (4.22) |
| Y30P+A32G+P54E | 3.30 / 4.17 / 3.21 | 3.56 | 5 of 9 (4.81) |
| D91F+S93T+F98W | 2.01 / 2.46 / 2.19 | 2.22 | 1 of 9 (3.56) |
| N33I+G49Y+F95E | ND / ND / ND | ND | 1 of 9 (2.73) |
| E23T+L27C+S92I | 3.18 / 3.67 / 1.88 | 2.91 | 3 of 9 (3.79) |
| A32G+K50Y+S93E | ND / ND / ND | ND | 0 of 9 |
| Y29M+N33Q+P54R | 2.07 / 1.36 / 2.58 | 2.00 | 0 of 9 |
| G49C+N51R+F98R | 4.09 / 4.89 / 4.66 | 4.55 | 4 of 9 (4.34) |
| R28P+S92I+V97Q | 3.18 / 5.81 / ND | 4.50 | 3 of 9 (3.49) |
| G24W+A32N+G49P | 3.80 / ND / ND | 3.80 | 1 of 9 (4.15) |
| Y30P+Q96Y | 2.17 / 2.53 / 2.06 | 2.25 | 1 of 9 (3.24) |
| E23W+Y29C+K50F | 5.39 / 4.18 / ND | 4.78 | 3 of 9 (3.36) |
| Y29R+N52D | 1.69 / 1.79 / 0.95 | 1.48 | 3 of 9 (3.91) |
| Y31D+N33T+K50A | 2.69 / 2.57 / 2.60 | 2.62 | 2 of 9 (3.97) |
| Y31L+R53W+G94W | 4.33 / 5.54 / ND | 4.93 | 2 of 9 (3.47) |
| S26R+S55V | 3.87 / ND / 2.56 | 3.22 | 3 of 9 (4.10) |
| Y30M+S55Q+S93H | 2.77 / 2.36 / 2.42 | 2.52 | 1 of 9 (2.91) |
| N51Q+S89H+S93M | 3.89 / ND / ND | 3.89 | 2 of 9 (4.68) |
| Y30H+R53C+P54A | 1.74 / 1.66 / 1.42 | 1.61 | 0 of 9 |
| R28C+G49W+K50E | 4.26 / ND / 4.10 | 4.18 | 1 of 9 (2.37) |
| G49T+N51A+R90G | 3.56 / ND / ND | 3.56 | 4 of 9 (4.14) |
| G24H+L27V+G49W | 4.98 / ND / ND | 4.98 | 3 of 9 (4.40) |
| E23D+S89I+F98Y | ND / ND / ND | ND | 2 of 9 (2.88) |
| L27C+P54D+S92T | 3.37 / 5.41 / ND | 4.39 | 2 of 9 (3.69) |
| L27T+N33G+F95A | 3.64 / 5.60 / ND | 4.62 | 2 of 9 (4.56) |
| S89I+D91S+F95R | 3.22 / 2.71 / 3.08 | 3.01 | 2 of 9 (3.56) |
| K50F+S88G+S92H | 2.78 / 2.47 / 3.25 | 2.83 | 2 of 9 (4.35) |
| P54R+S93E+G94D | 2.94 / 3.25 / 2.69 | 2.96 | 3 of 9 (4.14) |
| Y30F+S55E+S92M | 3.48 / 3.31 / 3.26 | 3.35 | 1 of 9 (3.71) |
| D25V+S89Y+D91H | 2.67 / 2.59 / 2.94 | 2.74 | 3 of 9 (4.78) |
| E23F+N52K+R90L | ND / ND / ND | ND | 1 of 9 (3.96) |
| Y29A+G49E+R53Q | 4.10 / 3.94 / ND | 4.02 | 2 of 9 (3.86) |
| E23N+L27N+N51T | ND / 4.03 / 3.28 | 3.66 | 1 of 9 (2.87) |
| S26Q+S88E+S89E | ND / ND / ND | ND | 2 of 9 (4.20) |
| E23T+Y30Q+N51G | 0.44 / 0.44 / -0.27 | 0.20 | 2 of 9 (3.49) |
| G24K+S89R+R90Y | ND / ND / ND | ND | 2 of 9 (4.71) |
| Y30H+S88N+S92H | 1.94 / 1.80 / 1.70 | 1.81 | 0 of 9 |

Source: Engelhart et al. 2022 (doi:10.1038/s41597-022-01779-4), MIT Lincoln Laboratory and A-Alpha Bio; data file from the FLAb repository.